Experiment [1] deals with T1, eeAChE (electric eel acetylcholinesterase) (Electrophorus electricus, UniProt O42275).
T1 construct: Eel acetylcholinesterase (eeAChE, E.C. 3.1.1.7, from Electrophorus electricus); purchased Sigma Aldrich
Kind of experiment: eeAChE inhibition, Ellman's method. It counts as biochemical. (In general: DTNB colorimetry detects thiols as they appear.)

Amino acid sequences for entries named in this document (tags omitted). Residues count along the entry.
UniProt O42275, 24-633: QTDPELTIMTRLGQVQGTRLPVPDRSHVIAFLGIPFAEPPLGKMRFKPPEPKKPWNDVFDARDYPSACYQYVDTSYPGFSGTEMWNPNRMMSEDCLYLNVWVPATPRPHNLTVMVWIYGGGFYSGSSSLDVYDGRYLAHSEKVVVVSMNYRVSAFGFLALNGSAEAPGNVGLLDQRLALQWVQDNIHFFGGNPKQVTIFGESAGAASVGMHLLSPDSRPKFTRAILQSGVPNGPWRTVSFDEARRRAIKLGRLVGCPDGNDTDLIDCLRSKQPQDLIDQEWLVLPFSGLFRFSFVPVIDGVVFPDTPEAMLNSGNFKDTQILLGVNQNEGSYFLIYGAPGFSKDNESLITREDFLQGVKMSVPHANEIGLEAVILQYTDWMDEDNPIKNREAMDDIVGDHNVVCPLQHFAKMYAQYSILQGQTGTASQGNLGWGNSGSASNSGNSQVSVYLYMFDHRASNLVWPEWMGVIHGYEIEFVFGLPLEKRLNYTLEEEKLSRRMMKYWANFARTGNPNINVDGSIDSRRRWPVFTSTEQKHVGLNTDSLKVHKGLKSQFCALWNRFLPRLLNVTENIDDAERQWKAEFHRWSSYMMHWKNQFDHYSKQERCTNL
UniProt P81908, whole entry: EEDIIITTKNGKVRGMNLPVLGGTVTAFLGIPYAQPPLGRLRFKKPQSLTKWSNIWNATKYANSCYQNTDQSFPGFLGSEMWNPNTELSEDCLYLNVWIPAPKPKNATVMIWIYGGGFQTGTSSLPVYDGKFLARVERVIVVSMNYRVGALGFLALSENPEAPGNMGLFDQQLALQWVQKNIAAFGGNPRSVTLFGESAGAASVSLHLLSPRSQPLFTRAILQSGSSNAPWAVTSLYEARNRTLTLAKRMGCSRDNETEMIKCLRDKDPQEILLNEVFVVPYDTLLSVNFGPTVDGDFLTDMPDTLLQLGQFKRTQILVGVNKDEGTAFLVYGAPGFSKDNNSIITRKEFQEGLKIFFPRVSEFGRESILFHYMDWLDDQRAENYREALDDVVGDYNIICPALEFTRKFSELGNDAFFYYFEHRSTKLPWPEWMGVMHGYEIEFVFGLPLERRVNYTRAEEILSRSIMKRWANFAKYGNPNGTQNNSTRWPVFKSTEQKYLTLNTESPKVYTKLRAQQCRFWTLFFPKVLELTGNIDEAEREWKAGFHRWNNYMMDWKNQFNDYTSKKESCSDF

Experiment [2] concerns the target T2, eqBChE (equine butyrylcholinesterase) (Equus caballus, UniProt P81908).
T2 construct: butyrylcholinesterase (eqBuChE, E.C. 3.1.1.8, from equine serum); purchased Sigma Aldrich; host or cells: equine serum
Kind of experiment: biochemical. It counts as biochemical.

Bounds are passed on as bounds.

One molecule from paper PMC7926627, “Fine-Tuning the Biological Profile of Multitarget Mitochondriotropic Antioxidants for Neurodegenerative Diseases” (Antioxidants, 2021) can be followed below.

Broadly, the IC50 is the concentration that gives 50% inhibition. A high value points to weaker potency in that assay. Regarding `O=C(C=CC=Cc1ccc2c(c1)OCO2)N1CCCCC1` [Compound 1, 1-[5-(1,3-benzodioxol-5-yl)-1-oxo-2,4-pentadienyl]piperidine, reference compound], the concentration for half-maximal inhibition (IC50) in experiment [1] and in experiment [2] was over 10 µM in each case. The eeAChE inhibitory activity entry in experiment [1] (at 10 µM) was “did not display significant”. Besides, the eqBChE inhibitory activity entry in experiment [2] (at 10 µM) is on record as “did not display significant”.
